Reference: US20090202439A1, “Methods for treatment of angiogenesis” (The Johns Hopkins University, priority 2004, published 2009)

Tests used:
[1] = tested on: PECAM-1; assay: PECAM-1 protein expression by Western immunoblot in HUVECs; conditions: CC 5.0 μM; GÖ 6850 and 6976 50 nM; BPB 10 μM; MAFP 3.0 μM; compared with vehicle (DMSO)
[2] = tested on: HUVECs; assay: In vitro angiogenesis/tube formation assay in HUVECs; conditions: CC 5.0 μM; GÖ 6850 and 6976 50 nM; BPB 10 μM; MAFP 3.0 μM; compared with vehicle (DMSO)

## methyl-arachidonyl fluorophosphonate
[1]
  VEGF/LacCer induced PECAM-1 expression: abrogated
[2]
  VEGF/LacCer induced tube formation: abrogated
